# Results taken from publication PMC11404765 (Journal of Clinical Oncology, 2024).
# How the values were obtained:
# HER2-positive BTC [1] = conditions: global phase IIb trial; cited from earlier work
# HER2-positive BTC [2] = assay: HERB phase II trial: confirmed tumor response and survival in HER2-positive BTC; type: in vivo, human
# HER2-low BTC = assay: HERB phase II trial: confirmed tumor response and survival in HER2-low BTC; type: in vivo, human; conditions: HER2-low (n = 8)
# HER2-expressing BTC = assay: HERB phase II trial: confirmed tumor response in the full analysis set; type: in vivo, human; conditions: FAS (n = 30)
# [3] = HERB phase II trial: safety in the safety analysis set; type: in vivo, human
# [4] = Incidence of human antihuman antibody; type: in vivo; conditions: samples from seven patients
# [5] = system: BTC harboring FGFR2 fusions or rearrangements; conditions: phase II trials; cited from earlier work
molecule,measurement,setting,value
Zanidatamab,ORR,HER2-positive BTC [1],41.3%
Trastuzumab deruxtecan [T-DXd],"Best response CR, LIR",HER2-positive BTC [2]; HER2-positive (n = 22),0 No. (%)
same,"Best response NE, LIR",HER2-positive BTC [2]; HER2-positive (n = 22),0 No. (%)
same,"Best response PR, BICR",HER2-positive BTC [2]; HER2-positive (n = 22),6 (27.3) No. (%)
same,"Best response PR, LIR",HER2-positive BTC [2]; HER2-positive (n = 22),8 (36.4) No. (%)
same,"Best response SD, BICR",HER2-positive BTC [2]; HER2-positive (n = 22),10 (45.5) No. (%)
same,"Best response SD, LIR",HER2-positive BTC [2]; HER2-positive (n = 22),11 (50.0) No. (%)
same,"Confirmed ORR by LIR, % (95% CI)",HER2-positive BTC [2]; HER2-positive (n = 22),36.4 (17.2 to 59.3) %
same,"DCR by BICR, % (95% CI)",HER2-positive BTC [2]; HER2-positive (n = 22),81.8 (59.7 to 94.8) %
same,"DCR by LIR, % (95% CI)",HER2-positive BTC [2]; HER2-positive (n = 22),86.4 (65.1 to 97.1) %
same,"Confirmed ORR by BICR, % (95% CI)",HER2-positive BTC [2]; HER2-positive subgroup: ECOG PS 1,28.6 (3.7 to 71.0) %
same,"Confirmed ORR by BICR, % (95% CI)",HER2-positive BTC [2]; HER2-positive subgroup: IHC2+,33.3 (9.9 to 65.1) %
same,"Confirmed ORR by BICR, % (95% CI)",HER2-positive BTC [2]; HER2-positive subgroup: age <65 years,33.3 (7.5 to 70.1) %
same,"Confirmed ORR by BICR, % (95% CI)",HER2-positive BTC [2]; HER2-positive subgroup: age ≥65 years,38.5 (13.9 to 68.4) %
same,"Confirmed ORR by BICR, % (95% CI)",HER2-positive BTC [2]; HER2-positive subgroup: ampulla of Vater cancer,50.0 (1.3 to 98.7) %
same,"Confirmed ORR by BICR, % (95% CI)",HER2-positive BTC [2]; HER2-positive subgroup: extrahepatic cholangiocarcinoma,33.3 (4.3 to 77.7) %
same,"Confirmed ORR by BICR, % (95% CI)",HER2-positive BTC [2]; HER2-positive subgroup: female,55.6 (21.2 to 86.3) %
same,"Confirmed ORR by BICR, % (95% CI)",HER2-positive BTC [2]; HER2-positive subgroup: gallbladder cancer,36.4 (10.9 to 69.2) %
same,"Confirmed ORR by BICR, % (95% CI)",HER2-positive BTC [2]; HER2-positive subgroup: intrahepatic cholangiocarcinoma,33.3 (0.8 to 90.6) %
same,"Confirmed ORR by BICR, % (95% CI)",HER2-positive BTC [2]; HER2-positive subgroup: locally advanced,50.0 (1.3 to 98.7) %
same,"Confirmed ORR by BICR, % (95% CI)",HER2-positive BTC [2]; HER2-positive subgroup: male,23.1 (5.0 to 53.8) %
same,"Confirmed ORR by BICR, % (95% CI)",HER2-positive BTC [2]; HER2-positive subgroup: metastatic,35.0 (15.4 to 59.2) %
same,"Confirmed ORR by BICR, % (95% CI)",HER2-positive BTC [2]; HER2-positive subgroup: recurrent,33.3 (7.5 to 70.1) %
same,"Confirmed ORR by BICR, % (95% CI)",HER2-positive BTC [2]; HER2-positive subgroup: unresectable,38.5 (13.9 to 68.4) %
same,"Best response CR, BICR",HER2-low BTC,0 No. (%)
same,"Best response CR, LIR",HER2-low BTC,0 No. (%)
same,"Best response NE, LIR",HER2-low BTC,0 No. (%)
same,"Best response SD, BICR",HER2-low BTC,5 (62.5) No. (%)
same,"Best response SD, LIR",HER2-low BTC,4 (50.0) No. (%)
same,"Confirmed ORR by LIR, % (95% CI)",HER2-low BTC,12.5 (0.3 to 52.7) %
same,"DCR by BICR, % (95% CI)",HER2-low BTC,75.0 (34.9 to 96.8) %
same,"DCR by LIR, % (95% CI)",HER2-low BTC,62.5 (24.5 to 91.5) %
same,Confirmed ORR by BICR,"HER2-low BTC; FAS, 5.4 mg/kg every 3 weeks",12.5%
same,"Best response CR, LIR",HER2-expressing BTC,0 No. (%)
same,"Best response NE, LIR",HER2-expressing BTC,0 No. (%)
same,"Best response PD, BICR",HER2-expressing BTC,4 (13.3) No. (%)
same,"Best response PD, LIR",HER2-expressing BTC,6 (20.0) No. (%)
same,"Best response PR, BICR",HER2-expressing BTC,7 (23.3) No. (%)
same,Confirmed ORR by BICR,HER2-expressing BTC,30.0%
same,"Confirmed ORR by LIR, % (95% CI)",HER2-expressing BTC,30.0 (14.7 to 49.4) %
same,"Treatment-related ≥grade 3 adverse events, patients",[3]; SAS (26/32),81.3%
same,Dose reduction because of treatment-related adverse events,[3]; SAS (n = 32),18.8%
same,Reason for discontinuation: adverse event,[3]; SAS (n = 32),7 (21.9) No. (%)
same,Serious TRAEs,[3]; SAS (n = 32),6 (18.8) No. (%)
same,TRAEs leading to treatment discontinuation,[3]; SAS (n = 32),8 (25.0) No. (%)
same,TRAEs leading to treatment interruption,[3]; SAS (n = 32),12 (37.5) No. (%)
same,≥grade 3 treatment-related anemia,[3]; SAS (n = 32),53.1%
same,≥grade 3 treatment-related decreased lymphocyte count,[3]; SAS (n = 32),21.9%
same,Any TRAEs,"[3]; SAS (n = 32), 5.4 mg/kg every 3 weeks",32 (100) No. (%)
same,ILD or pneumonitis grade 4,[3]; among patients with ILD or pneumonitis (n = 8),0 No. (%)
same,HAHA status,[4],HAHA-negative
C=CC(=O)N1CC[C@H](n2nc(C#Cc3cc(OC)cc(OC)c3)c3c(N)ncnc32)C1 [futibatinib],ORR,[5],41.7%
